PubChem BioAssay AID1663 (Broad Institute, 2009)
Only a part is listed here, and it is no random draw. Calls of active or inactive are those of the source.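 Rule for the calls: active = mean replicate score, as percent of positive control, at or above 50; inconclusive = mean below 50 but at least one replicate at or above 50; inactive = mean and every replicate below 50.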

Experiment: inhibitors of platelet dense granule secretion, primary screen, cell-based, MLPCN, human platelets (AID 1663)
Details: human platelet-rich plasma, SFLLRN dense granule ATP release, luminescence; stronger effect = higher value;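 compounds screened at 7.5 µM in platelet-rich plasma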

Row | SMILES | inhibition
1 | N#Cc1ccc(C(=O)NCC2(N3CCCCC3)CCCCC2)cc1 | inactive: -6.2%
2 | CC(C)(C)OC(=O)N1CCC(N(C(=O)c2ccccc2)c2ccc(Cl)cc2)CC1 | inactive: -0.674%
3 | CN(C)C1(CNC(=O)c2cccc(C#N)c2)CCCCC1 | inactive: 1.62%
4 | CCCN1CCC(Nc2cc(OC)cc(OC)c2)CC1 | inactive: 1.41%
5 | c1ccc(CN2CCC(Nc3ccccc3)CC2)cc1 | inactive: 7.4%
6 | COc1ccc(C(=O)NCC2(N3CCOCC3)CCCCC2)cc1OC | inactive: -2.2%
7 | CCOC(=O)N1CCC(Nc2ccc(C)cc2)CC1 | inactive: -5.48%
8 | N/C(=N\O)c1c(N)no[n+]1[O-] | inactive: -7.29%
9 | O=C(OC1CN2CCC1CC2)C1c2ccccc2C=Cc2ccccc21 (centres undefined) | inactive: 25.7%
10 | CCc1cc(C(=O)NCC2(N3CCCCC3)CCCCC2)sc1C | inactive: -7.84%
11 | CN1CCC(Nc2ccc(F)c(Cl)c2)CC1 | inactive: -1.38%
12 | CCOc1ncccc1C(=O)NCC1(N2CCOCC2)CCCCC1 | inactive: 7.91%
13 | O=C(O)C1(Nc2ccccc2)CCN(Cc2ccccc2)CC1 | inactive: 5.71%
14 | CC(C)(C)OC(=O)N1CCC(Nc2ccccc2)CC1 | inactive: 4.09%
15 | CCCOc1ccc(C(=O)NCC2(N(C)C)CCCCC2)cc1 | inactive: -1.12%
16 | COc1cccc(C(=O)N(c2cc(C)cc(C)c2)C2CCN(C(=O)OC(C)(C)C)CC2)c1 | inactive: 1.86%
17 | COc1cc(OC)cc(C(=O)NCC2(N3CCOCC3)CCCCC2)c1 | inactive: -12.6%
18 | CCC(CO)(C(=O)OC1CN2CCC1CC2)c1ccccc1 (centres undefined) | inactive: 0.708%
19 | CN1CCC(Nc2ccc(Cl)cc2)CC1 | inactive: -3.21%
20 | CCCOc1ccc(C)cc1CN(CCCl)CCCl | inactive: 15.5%

Row | SMILES | inhibition
21 | COc1cc(OC)cc(C(=O)NCC2(N3CCCCC3)CCCCC2)c1 | inactive: -10.5%
22 | Fc1ccccc1NC1CCN(Cc2ccccc2)CC1 | inactive: 9.24%
23 | Cc1ccc(C(=O)NCC2(N3CCCCC3)CCCCC2)o1 | inactive: -4.23%
24 | CCN1CCC(Nc2cccc(F)c2)CC1 | inactive: 2.54%
25 | CN(C)c1ccc(C(=O)NCC2(N3CCCCC3)CCCCC2)cc1 | inactive: 0.379%
26 | CCOc1ccc(C)cc1CN(CCCl)CCCl | inactive: 5.43%
27 | CCOC(=O)N1CCC(Nc2ccc(F)cc2)CC1 | inactive: -2.56%
28 | COc1ccc(NC2CCN(CCc3ccccc3)CC2)c(OC)c1 | inactive: 4.47%
29 | O=C(NCC1(N2CCCCC2)CCCCC1)c1ccc(F)cc1 | inactive: -1.79%
30 | Cc1ccc(OCC(C)C)c(CN(CCCl)CCCl)c1 | inactive: 8.64%
31 | COc1cc(C(=O)NCC2(N(C)C)CCCCC2)ccc1OC(F)F | inactive: 0.649%
32 | CCOC(=O)N1CCC(Nc2cccc(C)c2)CC1 | inactive: 1.73%
33 | COc1ccc(C(=O)NCC2(N3CCCCC3)CCCCC2)c(OC)c1OC | inactive: 2.25%
34 | CC(C)(C)OC(=O)N1CCC(N(C(=O)c2ccccc2)c2ccc(F)cc2)CC1 | inactive: 1.82%
35 | COc1ccc(C(=O)NCC2(N3CCCCC3)CCCCC2)cc1 | inactive: 1.62%
36 | O=C(NCC1(N2CCCCC2)CCCCC1)c1cccs1 | inactive: 0.951%
37 | O=C(NCC1(N2CCCCC2)CCCCC1)c1ccc(=O)[nH]c1 | inactive: 9.03%
38 | CSc1ccccc1C(=O)NCC1(N2CCCCC2)CCCCC1 | inactive: 5.92%
39 | Cc1cc(C)cc(N(C(=O)c2ccccc2)C2CCN(C(=O)OC(C)(C)C)CC2)c1 | inactive: -12.2%
40 | O=C(NCC1(N2CCCCC2)CCCCC1)c1ccc(Cl)nc1 | inactive: -7.75%

Row | SMILES | inhibition
41 | O=C(NCC1(N2CCOCC2)CCCCC1)c1cc2ccccc2o1 | inactive: 7.05%
42 | O=C(OC1CN2CCC1CC2)C1c2ccccc2Oc2ccccc21 (centres undefined) | inactive: -0.777%
43 | N#CC1(Nc2ccccc2)CCN(Cc2ccccc2)CC1 | inactive: -33%
44 | CCOC(=O)N1CCC(Nc2ccc(OC)cc2)CC1 | inactive: 1.12%
45 | CC(C)c1ccc(NC2CCN(C(=O)OC(C)(C)C)CC2)cc1 | inactive: -4.78%
46 | CN(C)c1cccc(C(=O)NCC2(N3CCCCC3)CCCCC2)c1 | inactive: -3.3%
47 | COc1ccc(CN(CCCl)CCCl)cc1Cl | inactive: -5.17%
48 | COc1cc(OC)c(C(=O)NCC2(N(C)C)CCCCC2)cc1OC | inactive: -0.46%
49 | CN1CCC(Nc2cccc(F)c2)CC1 | inactive: -6.34%
50 | CCCOc1ccc(C(=O)NCC2(N(C)C)CCCCC2)cc1OC | inactive: -6.77%
51 | O=C(NCC1(N2CCCCC2)CCCCC1)c1ccc(OC(F)F)cc1 | inactive: -13.6%
52 | N#CC1(Nc2ccccc2)CCN(CCc2ccccc2)CC1 | inactive: 2.89%
53 | CCN1CCC(Nc2ccc(Cl)cc2)CC1 | inactive: 1.54%
54 | O=C(NCC1(N2CCCCC2)CCCCC1)c1cccc([N+](=O)[O-])c1 | inactive: -6.54%
55 | O=C(NCC1(N2CCCCC2)CCCCC1)c1cccc(C(F)(F)F)c1 | inactive: 21.7%
56 | O=C(NCC1(N2CCOCC2)CCCCC1)c1cc(=O)[nH]c2ccccc12 | inactive: 2.97%
57 | COc1cc(C(=O)NCC2(N3CCCCC3)CCCCC2)ccc1OC(F)F | inactive: -0.194%
58 | COc1ccc(NC2CCN(C(=O)OC(C)(C)C)CC2)cc1 | inactive: 1.63%
59 | CN1CCN(CCOC(=O)C(O)(c2ccccc2)c2ccccc2)CC1 | inactive: -12.8%
